Legend:
[1] = system: EAE; assay: EAE relapse model: Rebif and/or Lisinopril treatment initiated at peak of disease; assay type: in vivo; conditions: Rebif daily 0.25 μg/mouse intraperitoneally, Lisinopril 1 mg/kg/day orally
[2] = system: EAE; assay: EAE relapse model: Rebif pro-treatment after immunization, Lisinopril at peak of disease; assay type: in vivo; conditions: over 50 days, Rebif 1 μg/mouse intraperitoneally every other day for 5 doses from 1 day after immunization (pro-treatment), Lisinopril or PBS daily, orally

B1: Rebif: commercially available interferon beta (IFN-β1a) product (EMD Serono) approved for the treatment of MS (protein, UniProt P01574 22-187, looked up)
Interferon beta: MSYNLLGFLQRSSNFQCQKLLWQLNGRLEYCLKDRMNFDIPEEIKQLQQFQKEDAALTIYEMLQNIFAIFRQDSSSTGWNETIVENLLANVYHQINHLKTVLEEKLEKEDFTRGKLMSSLHLKRYYGRILHYLKAKEYSHCAWTIVRVEILRNFYFINRLTGYLRN
For B1, which “Average Relapse Rate” value [1] is on record?
The value was 1.0.

And the “Average Relapse Rate” value ([1]; listed as PBS/Rebif)?
Its value is 1.00.

And the “Average Relapse Rate” value [2]?
Its value is 2.0.

What about the “Average Relapse Rate” value ([2]; listed as Rebif/PBS) of the same molecule?
The value was 2.00.

Reference: patent US20140308244A1, “Combination Therapy for Treatment of Inflammatory Demyelinating Disease” (The Board of Trustees of the Leland Stanford Junior …, priority 2011, published 2014)
